The values that follow come from paper PMC7849013, “Structural Investigations of the Inhibition of Escherichia coli AmpC β-Lactamase by Diazabicyclooctanes” (Antimicrobial Agents and Chemotherapy, 2021).

Sequences of proteins named here, by UniProt entry; tags and fusion partners are left off. Residues count along the entry.
UniProt P00811, 20-377: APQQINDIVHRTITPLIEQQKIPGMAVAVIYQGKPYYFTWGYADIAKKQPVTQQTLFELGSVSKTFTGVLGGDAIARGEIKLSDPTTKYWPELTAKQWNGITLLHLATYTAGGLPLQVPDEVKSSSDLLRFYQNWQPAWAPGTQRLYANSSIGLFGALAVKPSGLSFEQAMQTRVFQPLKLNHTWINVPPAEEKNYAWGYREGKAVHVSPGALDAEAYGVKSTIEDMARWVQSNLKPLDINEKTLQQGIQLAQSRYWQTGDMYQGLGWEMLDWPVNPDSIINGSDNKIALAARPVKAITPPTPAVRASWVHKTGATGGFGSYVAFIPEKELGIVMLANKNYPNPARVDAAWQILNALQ

Common to all, as to assay type: biochemical
Test [1] concerns the target T1, AmpC SBL from Escherichia coli (AmpCEC) (Escherichia coli, UniProt P00811).
T1 construct: made in house
Briefly: Steady-state competitive inhibition kinetics of AmpCEC with fluorescent substrate FC-5 (kobs, Kiapp, k2/K). The procedure: Assays were performed and analyzed as described previously ([34]). In summary, assays in the presence of inhibitors were carried out under steady-state conditions monitoring hydrolysis of the fluorescent substrate FC-5 ([33]) in 100 mM phosphate buffer, pH 7.5, supplemented with 0.01% (vol/vol) Triton X-100. Fluorescence was measured using a PHERAstar (BMG Labtech) plate reader, recording emission spectra at an excitation wavelength of 380 nm and emission wavelength of 460 nm. […] The pseudo first-order rate constant, kobs, and the apparent inhibition constant, Kiapp, were obtained by assaying 100 nM AmpCEC with 5 μM FC-5 in the presence of various concentrations of the inhibitor. Reactions were initiated by addition of AmpCEC and immediately monitored continuously over 30 s. […] The second-order rate constant (k2/K) was obtained from linear regression of measured kobs values against inhibitor concentrations (see Fig. S3b in the supplemental material) and corrected by the Michaelis constant (Km) and concentration of the substrate. Kiapps ([50]) were determined by linear regression of the reciprocals of the initial rates against inhibitor concentration (Fig. S3a) and corrected using the experimentally determined substrate Km and substrate concentration. […] Off rates were determined from exponential regression in relation to turnover of no enzyme and no inhibitor controls (Fig. S3c). […]

Test [2] deals with T1, AmpC SBL from Escherichia coli (AmpCEC). Description: AmpCEC inhibition pIC50 with varied preincubation time and pH (FC-5). The protocol: Assays were performed and analyzed as described previously ([34]). In summary, assays in the presence of inhibitors were carried out under steady-state conditions monitoring hydrolysis of the fluorescent substrate FC-5 ([33]) in 100 mM phosphate buffer, pH 7.5, supplemented with 0.01% (vol/vol) Triton X-100. Fluorescence was measured using a PHERAstar (BMG Labtech) plate reader, recording emission spectra at an excitation wavelength of 380 nm and emission wavelength of 460 nm. […] The pseudo first-order rate constant, kobs, and the apparent inhibition constant, Kiapp, were obtained by assaying 100 nM AmpCEC with 5 μM FC-5 in the presence of various concentrations of the inhibitor. Reactions were initiated by addition of AmpCEC and immediately monitored continuously over 30 s. Activity was fitted to an exponential course in relation to the uninhibited enzyme and a no-enzyme control to give initial rate constants (kobs) (Fig. S1 and Table S2), as described previously ([49]). The second-order rate constant (k2/K) was obtained from linear regression of measured kobs values against inhibitor concentrations (see Fig. S3b in the supplemental material) and corrected by the Michaelis constant (Km) and concentration of the substrate. Kiapps ([50]) were determined by linear regression of the reciprocals of the initial rates against inhibitor concentration (Fig. S3a) and corrected using the experimentally determined substrate Km and substrate concentration. Inhibitor off rates (koff) were measured using the jump-dilution method ([51]); thus, AmpCEC (1 μM) was incubated with the respective inhibitor (10 μM) for 30 min at room temperature and diluted 100,000-fold in the assay buffer to a final enzyme concentration of 10 pM and then immediately assayed using 25 μM (final concentration) FC-5. Off rates were determined from exponential regression in relation to turnover of no enzyme and no inhibitor controls (Fig. S3c). Half-lives of the enzyme-inhibitor complexes were directly calculated from the measured koff values.
pre-incubated with the inhibitors for the indicated times at room temperature and assayed using 5 μM FC-5 [1].
(1 picture or pasted object on this page, not shown here)
AmpCEC (500 pM) was preincubated
with the inhibitors for the indicated times at room temperature, then assayed using 5 μM FC-5 [1]. Buffer: 50 mM
regression (Figure S2), as described in the Materials and Methods. ND: Not determined.

For test [3] the target is unchanged. The test is described as above. The source holds these as a separate data set.

What is called IC50 is the concentration needed to halve the response being measured.

The compound `NC(=O)[C@@H]1CC[C@@H]2CN1C(=O)N2OS(=O)(=O)O` [AVI, avibactam] displayed a Ki in test [1] of 7400 ± 300 nM. The IC50 in test [2] (pIC50, 0 min preincubation, pH 7.5, 500 pM AmpCEC, 5 μM FC-5) is 240 nM; in test [2] (pIC50, 10 min preincubation, pH 7.5), 126 nM; in test [2] (pIC50, 30 min preincubation, pH 7.5) it was 55 nM; in test [2] (pIC50, 60 min preincubation, pH 7.5), 22.9 nM; in test [2] (pIC50, 360 min preincubation, pH 7.5, 500 pM AmpCEC, 5 μM FC-5) it was 6.92 nM; in test [3] (pIC50, 0 min preincubation, pH 7.0), 295 nM. The IC50 in test [3] (pIC50, 0 min preincubation, pH 8.0) was 204 nM; in test [3] (pIC50, 10 min preincubation, pH 7.0), 166 nM; in test [3] (pIC50, 10 min preincubation, pH 8.0), 70.8 nM; in test [3] (pIC50, 30 min preincubation, pH 7.0) it was 61.7 nM; in test [3] (pIC50, 60 min preincubation, pH 7.0), 30.2 nM; in test [3] (pIC50, 60 min preincubation, pH 8.0), 15.5 nM. For the same compound, the IC50 in test [3] (pIC50, 360 min preincubation, pH 7.0) was 9.55 nM; in test [3] (pIC50, 360 min preincubation, pH 8.0), 8.51 nM.
